{"source": "patent US4194009A", "about": "“Aryloxyphenylpropylamines for obtaining a psychotropic effect” (Eli Lilly and Company, priority 1976, dated 1980)", "system": "serotonin uptake by synaptosomes from rat brain", "experiment": "blockage of serotonin uptake by synaptosomes from rat brain", "format": "biochemical", "settings": "Table 2, serotonin 0.1 μM", "text": "This blockade is shown both in vitro with radioactive labelled compounds to determine the amount of monoamine uptake by synaptosomes from rat brain, and in vivo by a variety of methods. Among the physiologically active monoamines whose uptake is blocked by the compounds of this invention are included serotonin, norepinephrine and dopamine (3,4-dihydroxyphenylethylamine). […] Tables 1 and 2 which follow set forth the results of some of the in vitro determinations of the blockage of monoamine uptake by the compounds of this invention. In the tables, column 1 gives the R substituent on the 3-phenylpropylamine and columns 2-4, the concentration in micrograms per ml. that blocks the uptake of a particular amine by 50 percent for the amines--norephinephrine, serotonin, and dopamine. At the head of each column is given the concentration of the particular monoamine used in the experiment."}
{"smiles": "CNCCC(Oc1ccc(C(F)(F)F)cc1)c1ccccc1", "note": "(stereo not shown) [p-trifluoromethylpenyl, N-methyl 3-(p-trifluoromethylphenoxy)-3-phenylpropylamine]", "values": [{"measurement": "Concentration in mcg./ml. that blocks 50% of amine uptake, Serotonin", "result": ".06 µg/mL"}]}
